Results on 22 compounds are retold here after patent publication US20090099157A1, “TETRAHYDRO-PYRAZOLO-PYRIDINE THIOETHER MODULATORS OF CATHEPSIN S” (priority 2007, published 2009).

Chains of the proteins cited; added tags and fusions are not shown. Residues count along the entry.
UniProt P25774, 115-331: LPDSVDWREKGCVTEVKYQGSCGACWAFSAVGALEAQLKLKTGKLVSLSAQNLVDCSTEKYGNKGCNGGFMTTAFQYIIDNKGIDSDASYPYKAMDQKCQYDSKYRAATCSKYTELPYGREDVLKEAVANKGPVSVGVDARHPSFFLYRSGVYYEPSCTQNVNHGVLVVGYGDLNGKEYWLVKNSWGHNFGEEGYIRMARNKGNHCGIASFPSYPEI

This assay addresses Recombinant human cathepsin S (CatS) (Homo sapiens, UniProt P25774). Briefly: biochemical.

Turning to `CS(=O)(=O)N1CCc2c(c(-c3ccc(C(F)(F)F)c(SCCN4CCCC(F)C4)c3)nn2C[C@@H](O)CN2CCOCC2)C1` (stereo partly drawn) [Example 412, (2S)-1-{3-[3-{[2-(3-Fluoropiperidin-1-yl)ethyl]sulfanyl}-4-(trifluoromethyl)phenyl]-5-(methylsulfonyl)-4,5,6,7-tetrahydro-1H-pyrazolo[4,3-c]pyridin-1-yl}-3-morpholin-4-ylpropan-2-ol], the concentration for half-maximal inhibition (IC50) (usually the concentration needed to halve the response being measured) worked out at 490 nM.

With `CS(=O)(=O)N1CCc2c(c(-c3ccc(C(F)(F)F)c(SCC(=O)N4CCC(CCc5ccccc5)CC4)c3)nn2CCCN2CCC(N3CCCC3=O)CC2)C1` [Example 105, 1-{1-[3-(5-Methanesulfonyl-3-{3-[2-oxo-2-(4-phenethyl-piperidin-1-yl)-ethylsulfanyl]-4-trifluoromethyl-phenyl}-4,5,6,7-tetrahydro-pyrazolo[4,3-c]pyridin-1-yl)-propyl]-piperidin-4-yl}-pyrrolidin-2-one], the half-inhibitory concentration (IC50) was 280 nM.

Turning to `CS(=O)(=O)N1CCc2c(c(-c3ccc(C(F)(F)F)c(SCCN4CCC(F)CC4)c3)nn2CC(O)CN2CCN(c3ccccc3O)CC2)C1` (stereo not shown) [Example 791, 2-[4-(3-{3-[3-{[2-(4-Fluoropiperidin-1-yl)ethyl]sulfanyl}-4-(trifluoromethyl)phenyl]-5-(methylsulfonyl)-4,5,6,7-tetrahydro-1H-pyrazolo[4,3-c]pyridin-1-yl}-2-hydroxypropyl)piperazin-1-yl]phenol], the IC50 came to 25 nM.

As for `O=C1CCCN1C1CCN(CC(O)Cn2nc(-c3ccc(C(F)(F)F)c(SCCN4CCCCC4)c3)c3c2CCN(S(=O)(=O)c2ccccc2)C3)CC1` (stereo not shown) [Example 234, 1-(1-{2-Hydroxy-3-[5-(phenylsulfonyl)-3-{3-[(2-piperidin-1-ylethyl)sulfanyl]-4-(trifluoromethyl)phenyl}-4,5,6,7-tetrahydro-1H-pyrazolo[4,3-c]pyridin-1-yl]propyl}piperidin-4-yl)pyrrolidin-2-one], the half-maximal inhibitory concentration (IC50) came out at 20 nM.

In the case of `COc1ccccc1N1CCN(CC(O)Cn2nc(-c3ccc(C(F)(F)F)c(SCCN4CCOCC4)c3)c3c2CCN(S(C)(=O)=O)C3)CC1` (stereo not shown) [Example 785, 1-{4-[2-(Methyloxy)phenyl]piperazin-1-yl}-3-[5-(methylsulfonyl)-3-{3-[(2-morpholin-4-ylethyl)sulfanyl]-4-(trifluoromethyl)phenyl}-4,5,6,7-tetrahydro-1H-pyrazolo[4,3-c]pyridin-1-yl]propan-2-ol], the IC50 worked out at 40 nM.

As to `CC(C)(C)NCCSc1cc(-c2nn(CCCN3CCC(N4CCCC4=O)CC3)c3c2CN(S(C)(=O)=O)CC3)ccc1C(F)(F)F` [Example 144, 1-[1-(3-{3-[3-({2-[(1,1-Dimethylethyl)amino]ethyl}sulfanyl)-4-(trifluoromethyl)phenyl]-5-(methylsulfonyl)-4,5,6,7-tetrahydro-1H-pyrazolo[4,3-c]pyridin-1-yl}propyl)piperidin-4-yl]pyrrolidin-2-one], the IC50 was 3090 nM.

Regarding `O=C(CSc1cc(-c2nn(CC(O)CN3CCC(C(=O)N4CCCC4)CC3)c3c2CNCC3)ccc1C(F)(F)F)N1CCCC1` (stereo not shown) [Example 410, 1-(3-{3-[(2-Oxo-2-pyrrolidin-1-ylethyl)sulfanyl]-4-(trifluoromethyl)phenyl}-4,5,6,7-tetrahydro-1H-pyrazolo[4,3-c]pyridin-1-yl)-3-[4-(pyrrolidin-1-ylcarbonyl)piperidin-1-yl]propan-2-ol], the 50% inhibitory concentration (IC50) was determined as 700 nM.

`CC(=O)NC1CCN(C[C@H](O)Cn2nc(-c3ccc(C(F)(F)F)c(SCCN4CCCC(F)(F)C4)c3)c3c2CCN(S(C)(=O)=O)C3)CC1` [Example 141, (2S)—N-{1-[3-(3-{3-[2-(3,3-Difluoro-piperidin-1-yl)-ethylsulfanyl]-4-trifluoromethyl-phenyl}-5-methanesulfonyl-4,5,6,7-tetrahydro-pyrazolo[4,3-c]pyridin-1-yl)-2-hydroxy-propyl]-piperidin-4-yl}-acetamide]: the 50% inhibitory concentration (IC50) came out at 50 nM.

As to `CN(CCSc1cc(-c2nn(CCCN3CCCCC3)c3c2CN(S(C)(=O)=O)CC3)ccc1C(F)(F)F)CCc1ccccc1` [Example 489, N-Methyl-2-({5-[5-(methylsulfonyl)-1-(3-piperidin-1-ylpropyl)-4,5,6,7-tetrahydro-1H-pyrazolo[4,3-c]pyridin-3-yl]-2-(trifluoromethyl)phenyl}sulfanyl)-N-(2-phenylethyl)ethanamine], the IC50 was 5100 nM.

As for `CC(=O)N1CCc2c(c(-c3ccc(C(F)(F)F)c(SCC(=O)N4CCCC4)c3)nn2CC(O)CN2CCC(C)(C)CC2)C1` (stereo not shown) [Example 330, 1-(5-Acetyl-3-{3-[(2-oxo-2-pyrrolidin-1-ylethyl)sulfanyl]-4-(trifluoromethyl)phenyl}-4,5,6,7-tetrahydro-1H-pyrazolo[4,3-c]pyridin-1-yl)-3-(4,4-dimethylpiperidin-1-yl)propan-2-ol], the concentration for half-maximal inhibition (IC50) was determined as 290 nM.

As for `CS(=O)(=O)N1CCc2c(c(-c3ccc(C(F)(F)F)c(SCCOc4ccccc4)c3)nn2CCCN2CCC(N3CCCC3=O)CC2)C1` [Example 137, 1-[1-(3-{5-Methanesulfonyl-3-[3-(2-phenoxy-ethylsulfanyl)-4-trifluoromethyl-phenyl]-4,5,6,7-tetrahydro-pyrazolo[4,3-c]pyridin-1-yl}-propyl)-piperidin-4-yl]-pyrrolidin-2-one], the IC50 was 220 nM.

As for `CS(=O)(=O)N1CCc2c(c(-c3ccc(Cl)c([S+]([O-])Cc4ccccc4)c3)nn2CCCN2CCOCC2)C1` (stereo not shown) [Example 143, 3-(4-Chloro-3-phenylmethanesulfinyl-phenyl)-5-methanesulfonyl-1-(3-morpholin-4-yl-propyl)-4,5,6,7-tetrahydro-1H-pyrazolo[4,3-c]pyridine], the IC50 was determined as 1200 nM.

Take `CC1(O)CCN(CCSc2cc(-c3nn(C[C@@H](O)CN4CCCCC4)c4c3CN(S(C)(=O)=O)CC4)ccc2C(F)(F)F)CC1` [Example 217, 1-(2-{[5-{1-[(2S)-2-Hydroxy-3-piperidin-1-ylpropyl]-5-(methylsulfonyl)-4,5,6,7-tetrahydro-1H-pyrazolo[4,3-c]pyridin-3-yl}-2-(trifluoromethyl)phenyl]sulfanyl}ethyl)-4-methylpiperidin-4-ol]: the IC50 came to 810 nM.

In the case of `CS(=O)(=O)N1CCc2c(c(-c3ccc(C(F)(F)F)c(SCCN4CCC(F)CC4)c3)nn2CC(O)CN2CC[C@@H](O)C2)C1` (stereo partly drawn) [Example 414, (3R)-1-(3-{3-[3-{[2-(4-Fluoropiperidin-1-yl)ethyl]sulfanyl}-4-(trifluoromethyl)phenyl]-5-(methylsulfonyl)-4,5,6,7-tetrahydro-1H-pyrazolo[4,3-c]pyridin-1-yl}-2-hydroxypropyl)pyrrolidin-3-ol], the half-inhibitory concentration (IC50) came out at 480 nM.

Regarding `CC(=O)N1CCN(CCSc2cc(-c3nn(CC(O)CN4CCCCC4)c4c3CN(S(C)(=O)=O)CC4)ccc2C(F)(F)F)CC1` (stereo not shown) [Example 187, 1-{3-[3-{[2-(4-Acetylpiperazin-1-yl)ethyl]sulfanyl}-4-(trifluoromethyl)phenyl]-5-(methylsulfonyl)-4,5,6,7-tetrahydro-1H-pyrazolo[4,3-c]pyridin-1-yl}-3-piperidin-1-ylpropan-2-ol], the IC50 turned out to be 1040 nM.

Regarding `CC1(C)CCN(CC(O)Cn2nc(-c3ccc(C(F)(F)F)c(SCCN4CCOCC4)c3)c3c2CCN(S(C)(=O)=O)C3)CC1` (stereo not shown) [Example 176, 1-(4,4-Dimethylpiperidin-1-yl)-3-[5-(methylsulfonyl)-3-{3-[(2-morpholin-4-ylethyl)sulfanyl]-4-(trifluoromethyl)phenyl}-4,5,6,7-tetrahydro-1H-pyrazolo[4,3-c]pyridin-1-yl]propan-2-ol], the IC50 was 500 nM.

Turning to `CS(=O)(=O)N1CCc2c(c(-c3ccc(C(F)(F)F)c(SCCN4CCCCC4)c3)nn2CC(O)CN2CCCC2)C1` (stereo not shown) [Example 161, 1-[5-(Methylsulfonyl)-3-{3-[(2-piperidin-1-ylethyl)sulfanyl]-4-(trifluoromethyl)phenyl}-4,5,6,7-tetrahydro-1H-pyrazolo[4,3-c]pyridin-1-yl]-3-pyrrolidin-1-ylpropan-2-ol], the IC50 amounted to 230 nM.

Take `CS(=O)(=O)N1CCc2c(c(-c3ccc(C(F)(F)F)c(SCC(=O)N4CCC(O)C4)c3)nn2CCCN2CCC(N3CCCC3=O)CC2)C1` (stereo not shown) [Example 75, 1-{1-[3-(3-{3-[2-(3-Hydroxy-pyrrolidin-1-yl)-2-oxo-ethylsulfanyl]-4-trifluoromethyl-phenyl}-5-methanesulfonyl-4,5,6,7-tetrahydro-pyrazolo[4,3-c]pyridin-1-yl)-propyl]-piperidin-4-yl}-pyrrolidin-2-one]: the IC50 came to 90 nM.

With `CN(C)c1ccc2c(n1)n(C1CCN(CCCn3nc(-c4ccc(C(F)(F)F)c(SCCO)c4)c4c3CCN(S(C)(=O)=O)C4)CC1)c(=O)n2C` [Example 3, 5-Dimethylamino-3-[1-(3-{3-[3-(2-hydroxy-ethylsulfanyl)-4-trifluoromethyl-phenyl]-5-methanesulfonyl-4,5,6,7-tetrahydro-pyrazolo[4,3-c]pyridin-1-yl}-propyl)piperidin-4-yl]-1-methyl-1,3-dihydro-imidazo[4,5-b]pyridin-2-one], the half-inhibitory concentration (IC50) was determined as 40 nM.

Consider `CS(=O)(=O)N1CCc2c(c(-c3ccc(C(F)(F)F)c(SCCN4CCS(=O)(=O)CC4)c3)nn2CCCN2CCC(N3CCCC3=O)CC2)C1` [Example 15, 1-{1-[3-(3-{3-[2-(1,1-Dioxo-1λ^6-thiomorpholin-4-yl)-ethylsulfanyl]-4-trifluoromethyl-phenyl}-5-methanesulfonyl-4,5,6,7-tetrahydro-pyrazolo[4,3-c]pyridin-1-yl)-propyl]-piperidin-4-yl}-pyrrolidin-2-one], for which the IC50 was 150 nM.

On to `CS(=O)(=O)N1CCc2c(c(-c3ccc(C(F)(F)F)c(SCCN4CNC(=O)C4)c3)nn2CCCN2CCCCC2)C1` [Example 324, 1-[2-({5-[5-(Methylsulfonyl)-1-(3-piperidin-1-ylpropyl)-4,5,6,7-tetrahydro-1H-pyrazolo[4,3-c]pyridin-3-yl]-2-(trifluoromethyl)phenyl}sulfanyl)ethyl]imidazolidin-4-one], for which the IC50 turned out to be 1830 nM.

As for `CS(=O)(=O)NC1CCN(CC(O)Cn2nc(-c3ccc(C(F)(F)F)c(SCCN4CCCC(O)C4)c3)c3c2CCNC3)CC1` (stereo not shown) [Example 463, N-[1-(2-Hydroxy-3-{3-[3-{[2-(3-hydroxypiperidin-1-yl)ethyl]sulfanyl}-4-(trifluoromethyl)phenyl]-4,5,6,7-tetrahydro-1H-pyrazolo[4,3-c]pyridin-1-yl}propyl)piperidin-4-yl]methanesulfonamide], the IC50 came out at 6440 nM.
